Our source for the Ki values is patent US20250276955A1, “CORONAVIRUS MAIN PROTEASE INHIBITORS AND METHODS USING SAME” (Baylor College of Medicine, priority 2021, published 2025).

For this assay, the target named is SARS-COV-2 M^pro (authentic N- and C-termini) (Severe acute respiratory syndrome coronavirus 2, UniProt P0DTD1). Format: biochemical. The note with it: read-out: Ki, app towards SARS-CoV-2 M^pro, athentic termini.

Turning to `CNCc1cc(-c2cccc3[nH]ncc23)cc(OC)c1OCC(=O)N(C)C` [CDD-1777], the Ki stood at 2430 nM.
